We go through 2 molecules from patent publication US6008258A, “d-methadone, a nonopioid analegesic” (priority 1998, dated 1999).

As usually defined, the Ki is the equilibrium dissociation constant of an inhibitor or competing ligand from its target.

The subject of assay [1] is NMDA receptors. Particulars: Gorman et al.; cited from earlier work.
Assay [2] concerns the target NMDA receptor (noncompetitive MK-801 site), rat spinal cord. The assay is described as follows: [3H]MK-801 displacement, rat spinal cord synaptic membranes. Particulars: read-out: [3H]MK-801 Ki, spinal cord; mean ± SEM, 2 to 4 observations; CNS region spinal cord. The class given is binding.

In the case of `CN1CC[C@]23c4c5ccc(O)c4O[C@H]2C(=O)CC[C@H]3[C@H]1C5` [Hydromorphone], the “binding to NMDA receptors” value in assay [1] is recorded as “do not bind to NMDA receptors”.

For the molecule `COc1ccc2c(c1)[C@]13CCCC[C@@H]1[C@H](C2)N(C)CC3` [Dextromethorphan], the Ki in assay [2] is 800 ± 600 nM.
